Measured values: PMC7723054
Some of the results follow.

T1: LIN28A (human?, UniProt Q9H9Z2 1-209)
T1 sequence: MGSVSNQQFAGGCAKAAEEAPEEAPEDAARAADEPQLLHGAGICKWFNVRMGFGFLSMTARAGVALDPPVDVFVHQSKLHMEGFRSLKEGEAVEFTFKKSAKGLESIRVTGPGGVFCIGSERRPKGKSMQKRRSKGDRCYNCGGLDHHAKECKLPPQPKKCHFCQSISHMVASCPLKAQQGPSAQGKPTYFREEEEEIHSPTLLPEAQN

T2: CIRBP (Homo sapiens, UniProt Q14011 1-172)
T2 sequence: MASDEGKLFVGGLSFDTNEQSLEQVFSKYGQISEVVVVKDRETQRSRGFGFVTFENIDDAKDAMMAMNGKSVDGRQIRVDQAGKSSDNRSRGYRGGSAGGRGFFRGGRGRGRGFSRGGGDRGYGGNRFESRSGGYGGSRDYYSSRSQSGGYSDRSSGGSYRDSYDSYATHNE

T3: DHX36 (Homo sapiens, UniProt Q9H2U1 1-1008)
T3 sequence: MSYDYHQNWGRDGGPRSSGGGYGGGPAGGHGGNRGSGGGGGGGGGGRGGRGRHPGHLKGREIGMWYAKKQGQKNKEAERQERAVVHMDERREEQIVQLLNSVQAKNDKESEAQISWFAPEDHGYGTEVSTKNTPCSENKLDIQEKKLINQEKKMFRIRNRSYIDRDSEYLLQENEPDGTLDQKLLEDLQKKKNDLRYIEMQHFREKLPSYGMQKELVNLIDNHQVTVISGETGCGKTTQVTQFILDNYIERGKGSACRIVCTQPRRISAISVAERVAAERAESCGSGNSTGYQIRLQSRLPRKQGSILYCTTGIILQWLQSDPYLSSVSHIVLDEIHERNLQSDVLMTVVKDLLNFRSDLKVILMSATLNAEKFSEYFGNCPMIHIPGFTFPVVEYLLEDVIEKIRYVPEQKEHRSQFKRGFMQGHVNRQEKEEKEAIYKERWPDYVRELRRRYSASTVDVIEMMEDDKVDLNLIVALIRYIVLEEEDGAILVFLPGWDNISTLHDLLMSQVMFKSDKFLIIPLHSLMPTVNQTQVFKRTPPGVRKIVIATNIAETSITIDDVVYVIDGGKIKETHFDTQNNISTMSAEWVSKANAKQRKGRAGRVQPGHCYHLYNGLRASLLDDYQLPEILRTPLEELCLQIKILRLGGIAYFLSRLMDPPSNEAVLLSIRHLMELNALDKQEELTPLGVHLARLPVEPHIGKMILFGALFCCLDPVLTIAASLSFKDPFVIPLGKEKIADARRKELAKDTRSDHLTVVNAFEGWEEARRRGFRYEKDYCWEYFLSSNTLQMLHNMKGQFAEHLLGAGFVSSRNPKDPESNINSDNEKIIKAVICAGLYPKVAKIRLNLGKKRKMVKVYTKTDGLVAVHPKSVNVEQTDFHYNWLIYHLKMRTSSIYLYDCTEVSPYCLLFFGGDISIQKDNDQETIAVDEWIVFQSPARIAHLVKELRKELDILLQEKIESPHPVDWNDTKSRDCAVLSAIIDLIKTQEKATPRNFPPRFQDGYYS

B1: hsa-mir-130a (structured_RNA)
RNA: GGGAAUCAGUGAAUAAAGGAAGUACCCUGGUGUACGAAGUUUCAGCGCUACUGUCUGCACCUGUCACUAGCAGUGCUGAAGCUUCGUGCAC
B2: hsa-mir-4473 (structured_RNA)
RNA: GGGAACUAUCGUCGCCUGUUCCUGACCGGGUGUACGAAGUUUCAGCCUAAGCUAUGGACUGCUAUGGACUGCUAGGCUGAAGCUUCGUGCAC
B3: hsa-mir-4743 (structured_RNA)
RNA: GGGAAGCCUAGAUAAGCCGCCUCUAAUCGGUGUACGAAGUUUCAGCGGAGGCAUGAAUGAGCCAUCUUUCCAAUGCCUUUCGCUGAAGCUUCGUGCAC
B4: hsa-mir-6858 (structured_RNA)
RNA: GGGAACGAGGAAAAUCCCCAAUCGGCAUGGUGUACGAAGUUUCAGCGCAGGGACCCCUCCAAGUUGGGGACGGCAGCGCUGAAGCUUCGUGCAC
B5: hsa-mir-4638 (structured_RNA)
RNA: GGGAAAUGACCCUUGGACGUGCACAUUAGGUGUACGAAGUUUCAGCAAGUCCGGCUCCAGAACCUGGACACCGCUCAGGCUGAAGCUUCGUGCAC
B6: hsa-mir-762 (structured_RNA)
RNA: GGGAAAUCACCGUCUCAACCCCGGUUCGGGUGUACGAAGUUUCAGCUCCGGCCGGCCAUGCUGGCGGGGGCUGAAGCUUCGUGCAC
B7: hsa-mir-4731 (structured_RNA)
RNA: GGGAAGGACCUGGAGCCUAUAGCCGAAUGGUGUACGAAGUUUCAGCAGUGUGCAGUCAUCCACACAGCUGAAGCUUCGUGCAC
B8: hsa-mir-921 (structured_RNA)
RNA: GGGAGCCUACAACAAGGUUUGGUCAACAGGUGUACGAAGUUUCAGCAUUCAGACUCAGGUGCUGAAGCUUCGUGCAC
B9: hsa-mir-3913-2 (structured_RNA)
RNA: GGGAUCAGCGUGUGGAGUCGUAAUUCACGGUGUACGAAGUUUCAGCGUCUGCCAAGGUUUUGGCAGACGCUGAAGCUUCGUGCAC
B10: hsa-mir-6504 (structured_RNA)
RNA: GGGACACCCUGAAGUACCAUGAGUCAUAGGUGUACGAAGUUUCAGCAAUGCAGUCUGCACCCUGCUGCAUUGCUGAAGCUUCGUGCAC
B11: hsa-mir-561 (structured_RNA)
RNA: GGGACUUAUAGUGUCGCAAGAGCAACUGGGUGUACGAAGUUUCAGCUUUGCCAGAGCUACAAAGGCAAAGCUGAAGCUUCGUGCAC
B12: hsa-mir-6791 (structured_RNA)
RNA: GGGAAUCGAAGACUAGACACCACUCAAAGGUGUACGAAGUUUCAGCGGCUGGGCAGGCGGAAAGAGGUCUGAACUGCCUCUGCCGCUGAAGCUUCGUGCAC
B13: hsa-mir-548n (structured_RNA)
RNA: GGGAAUAAGCUGCGCCCUGUCCGAAUGUGGUGUACGAAGUUUCAGCUUGUCGUUAAAAAUAGCAAGCUGAAGCUUCGUGCAC
B14: hsa-mir-4776-1 (structured_RNA)
RNA: GGGAAUAAGGUAGACUCACCCCAAGAUCGGUGUACGAAGUUUCAGCCAAGGGCUCUCCUGAAAGGACAGUAGAGCCCUUGGCUGAAGCUUCGUGCAC
B15: hsa-mir-607 (structured_RNA)
RNA: GGGAAAAUUGGGUUAGUGGACCACCAGCGGUGUACGAAGUUUCAGCGAACCCAGGGAGCCAGACUGCCUGGGUUCGCUGAAGCUUCGUGCAC
B16: hsa-mir-510 (structured_RNA)
RNA: GGGAAAACACUAACAUCGGCUUUACCUCGGUGUACGAAGUUUCAGCCAAUCACAUGUAAUUAGGUGUGAUUGGCUGAAGCUUCGUGCAC
B17: hsa-mir-374c (structured_RNA)
RNA: GGGAAAGCCGAACUAGAAACUCUGCCCUGGUGUACGAAGUUUCAGCAGUGCUAGGACACUGCUGAAGCUUCGUGCAC
B18: hsa-mir-4688 (structured_RNA)
RNA: GGGAAUUUUGGGCCCAUCUACGGAACACGGUGUACGAAGUUUCAGCCCUCCCUAGGGGAUCCCAGGUAGGGCUGAAGCUUCGUGCAC
B19: hsa-mir-6126 (structured_RNA)
RNA: GGGAAGUGGGACCGAACGACUUGUUUAAGGUGUACGAAGUUUCAGCGAGACACUCGCUGAAGCUUCGUGCAC
B20: hsa-mir-3614 (structured_RNA)
RNA: GGGAAGCGCUCGGGUUCACAACUAUCGGGGUGUACGAAGUUUCAGCGCUGCCCCUUUGCUCUCUGGGGUAGCGCUGAAGCUUCGUGCAC
B21: hsa-mir-3125 (structured_RNA)
RNA: GGGACCGUUAAAGGUUCGCAUGAGGGUGGGUGUACGAAGUUUCAGCGAGAACUCACGGUGCCUGUGGUUCGAGCUGAAGCUUCGUGCAC
B22: hsa-mir-4695 (structured_RNA)
RNA: GGGACCCCUAUUACUUUGCAAGGCUGGAGGUGUACGAAGUUUCAGCCAGGCGGGGCAGCCCAAUGCCAUGGGCCUGAUGCUGAAGCUUCGUGCAC
B23: hsa-mir-6825 (structured_RNA)
RNA: GGGAAAGACGCUCUGGUGCGAAAGACCCGGUGUACGAAGUUUCAGCGCAUGGGGCUAGGAGGCCCCGCGCGCUGAAGCUUCGUGCAC
B24: hsa-mir-5089 (structured_RNA)
RNA: GGGAACUCGGGCGCAAACUCAUCACGAUGGUGUACGAAGUUUCAGCGCAUCCUUGGAAUCUGCACUCAAGGGAUGCGCUGAAGCUUCGUGCAC
B25: hsa-mir-181b-2 (structured_RNA)
RNA: GGGAGCGGAUAGUUCAAGCAUAUGAAGUGGUGUACGAAGUUUCAGCUGGGUUUGAGUCUGAAUCAACUCAGCUGAAGCUUCGUGCAC
B26: hsa-mir-4494 (structured_RNA)
RNA: GGGAUAUUAGCGUCGGUCUGGUACCCACGGUGUACGAAGUUUCAGCCUGAAAAUACAAAAUGGAAAAUUCCAGGCUGAAGCUUCGUGCAC

target: T1, LIN28A; assay: FOREST: bead pull-down of RNA structure library v1, barcode microarray; U1A/LIN28A: 20 mM HEPES pH 7.5, 80 mM KCl, 20 mM NaCl, 10% glycerol, 2 mM DTT, 0.1 ug/uL BSA, 4 C; BG4/CIRBP/DHX36: 10 mM Tris-HCl pH 7.5, 100 mM KCl (or LiCl),; high values mean tight binding

First: B1
Second: B2
The binding signal of the first is higher: -0.77 z-score for the first, -0.775 z-score for the second.

Compared with B3, B4 is lower in binding signal: -0.779 z-score for the first, -0.785 z-score for the second.

B5 and B6 are the same in binding signal: -0.792 z-score for the first, -0.792 z-score for the second.

Going from B7 to B8, the binding signal falls from -0.795 z-score to -0.796 z-score.

First: B9
Second: B10
The binding signal of the first is higher: -0.804 z-score for the first, -0.806 z-score for the second.

First: B11
Second: B12
The binding signal of the first is higher: -0.806 z-score for the first, -0.812 z-score for the second.

First: B13
Second: B14
The binding signal of the first is higher: -0.812 z-score for the first, -0.814 z-score for the second.

Compared with B15, B16 is lower in binding signal: -0.817 z-score for the first, -0.828 z-score for the second.

First: B17
Second: B18
The binding signal of the first is higher: -0.828 z-score for the first, -0.829 z-score for the second.

B19 and B20 are the same in binding signal: -0.831 z-score for the first, -0.831 z-score for the second.

B21 and B22 are the same in binding signal: -0.84 z-score for the first, -0.84 z-score for the second.

Compared with B23, B24 is lower in binding signal: -0.843 z-score for the first, -0.849 z-score for the second.

B25 and B26 are the same in binding signal: -0.852 z-score for the first, -0.852 z-score for the second.

target: T2, CIRBP; assay: as above

Compared with B1, B2 is lower in binding signal: -0.0324 z-score for the first, -0.94 z-score for the second.

Compared with B3, B4 is lower in binding signal: -0.243 z-score for the first, -1.05 z-score for the second.

First: B5
Second: B6
The binding signal of the first is lower: -0.556 z-score for the first, 0.519 z-score for the second.

First: B7
Second: B8
The binding signal of the first is lower: -0.099 z-score for the first, 0.199 z-score for the second.

Going from B9 to B10, the binding signal rises from -0.988 z-score to 0.603 z-score.

Going from B11 to B12, the binding signal rises from -0.613 z-score to 0.353 z-score.

First: B13
Second: B14
The binding signal of the first is lower: -0.519 z-score for the first, 0.486 z-score for the second.

First: B15
Second: B16
The binding signal of the first is higher: 0.437 z-score for the first, -0.545 z-score for the second.

First: B17
Second: B18
The binding signal of the first is higher: 0.533 z-score for the first, -0.28 z-score for the second.

Going from B19 to B20, the binding signal rises from -0.885 z-score to 0.664 z-score.

Going from B21 to B22, the binding signal rises from -0.0333 z-score to 0.00682 z-score.

Going from B23 to B24, the binding signal falls from 0.114 z-score to -0.259 z-score.

Compared with B25, B26 is lower in binding signal: 0.534 z-score for the first, -0.491 z-score for the second.

target: T3, DHX36; assay: as above

Going from B1 to B2, the binding signal falls from 0.0712 z-score to -1.99 z-score.

Compared with B3, B4 is lower in binding signal: 0.115 z-score for the first, -0.587 z-score for the second.

Compared with B5, B6 is higher in binding signal: -0.799 z-score for the first, -0.337 z-score for the second.

Compared with B7, B8 is higher in binding signal: -0.591 z-score for the first, -0.526 z-score for the second.

Compared with B9, B10 is higher in binding signal: -0.153 z-score for the first, 0.536 z-score for the second.

Going from B11 to B12, the binding signal rises from -1.71 z-score to 0.096 z-score.

Compared with B13, B14 is lower in binding signal: 0.187 z-score for the first, -0.313 z-score for the second.

First: B15
Second: B16
The binding signal of the first is higher: -0.223 z-score for the first, -1.16 z-score for the second.

First: B17
Second: B18
The binding signal of the first is higher: -0.553 z-score for the first, -0.597 z-score for the second.

Going from B19 to B20, the binding signal rises from -0.425 z-score to -0.241 z-score.

Going from B21 to B22, the binding signal falls from 0.251 z-score to -0.592 z-score.

First: B23
Second: B24
The binding signal of the first is lower: -0.499 z-score for the first, -0.49 z-score for the second.

Going from B25 to B26, the binding signal falls from -0.961 z-score to -1.07 z-score.
